The list shows a part of the results, in another mix than the full data. Calls of active or inactive are those of the source.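 The calls were made as follows: active = ratio signal rise beyond 5 SD above unstimulated control wells' mean, seen in both duplicate runs; inactive = the rest.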
molecular target: Short transient receptor potential channel 6 (Mus musculus) (UniProt Q61143); test: mouse TRPC6 channel activators, confirmation, HEK293 cells, membrane potential dye, duplicate (AID 488961); settings: HEK293-TRPC6 membrane potential dye fluorescence, FDSS; at 10 µM

Protein sequences, listed by entry. Tags and fused reporters are not part of them.
UniProt Q61143, whole entry: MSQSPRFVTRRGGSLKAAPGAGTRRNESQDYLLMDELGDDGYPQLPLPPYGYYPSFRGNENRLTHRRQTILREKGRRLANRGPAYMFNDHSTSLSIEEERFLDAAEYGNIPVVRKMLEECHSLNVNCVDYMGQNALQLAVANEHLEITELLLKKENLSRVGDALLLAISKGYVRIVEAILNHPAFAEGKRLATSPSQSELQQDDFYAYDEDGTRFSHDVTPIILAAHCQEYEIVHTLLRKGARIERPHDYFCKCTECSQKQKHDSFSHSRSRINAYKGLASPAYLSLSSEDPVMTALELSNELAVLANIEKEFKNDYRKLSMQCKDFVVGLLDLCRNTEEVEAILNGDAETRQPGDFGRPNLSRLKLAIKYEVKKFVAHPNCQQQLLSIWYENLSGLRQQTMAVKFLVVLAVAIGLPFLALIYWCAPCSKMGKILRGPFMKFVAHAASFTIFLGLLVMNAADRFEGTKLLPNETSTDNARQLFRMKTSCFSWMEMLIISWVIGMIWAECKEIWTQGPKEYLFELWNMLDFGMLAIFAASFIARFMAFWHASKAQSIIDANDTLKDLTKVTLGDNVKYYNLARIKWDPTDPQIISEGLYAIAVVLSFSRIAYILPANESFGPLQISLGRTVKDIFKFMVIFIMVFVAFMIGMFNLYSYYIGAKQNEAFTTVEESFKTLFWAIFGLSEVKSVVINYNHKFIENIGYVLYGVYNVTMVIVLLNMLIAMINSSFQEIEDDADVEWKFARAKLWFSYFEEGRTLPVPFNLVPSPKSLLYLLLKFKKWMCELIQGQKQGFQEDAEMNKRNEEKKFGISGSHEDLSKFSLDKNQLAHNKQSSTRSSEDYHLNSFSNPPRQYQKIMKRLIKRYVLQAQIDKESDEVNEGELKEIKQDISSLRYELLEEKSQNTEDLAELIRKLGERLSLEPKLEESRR

Row | SMILES | outcome
1 | CCN(CC)CCCOC(=O)C(O)(c1ccccc1)c1ccccc1 | inactive
2 | CN(C)CCOC(=O)C(O)(c1ccccc1)C1CCCC1 (stereo not drawn) | inactive
3 | CN(C)CCOC(=O)C(O)(c1ccccc1)C1CCCCC1 (stereo not drawn) | inactive

— PubChem BioAssay AID488961 (Johns Hopkins Ion Channel Center, 2010)
